The list shows a part of the results, in another mix than the full data. Activity calls are given as the source filed them.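 Rule for the calls: active = inhibition above the mean of all tested compounds plus 3 SD (cut at about 43% in these data); inactive = the rest.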
Molecular target: 5-hydroxytryptamine receptor 1A (Homo sapiens) (UniProt P08908)
Assay: human 5-HT1a receptor antagonists, primary screen, cell-based, CHO, Ga15 NFAT-bla reporter (AID 612);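 note: receptor stimulated by 5-CT agonist at 100 nM near EC80; beta-lactamase reporter measured by ratiometric fluorescence of a cleavable substrate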
Settings: CHO 5-HT1a Ga15 NFAT-bla reporter, antagonist mode; at 10 µM; stronger effect = higher value

Sequences of proteins named here, by UniProt entry; tags and fusion partners are left off.
UniProt P08908, whole entry: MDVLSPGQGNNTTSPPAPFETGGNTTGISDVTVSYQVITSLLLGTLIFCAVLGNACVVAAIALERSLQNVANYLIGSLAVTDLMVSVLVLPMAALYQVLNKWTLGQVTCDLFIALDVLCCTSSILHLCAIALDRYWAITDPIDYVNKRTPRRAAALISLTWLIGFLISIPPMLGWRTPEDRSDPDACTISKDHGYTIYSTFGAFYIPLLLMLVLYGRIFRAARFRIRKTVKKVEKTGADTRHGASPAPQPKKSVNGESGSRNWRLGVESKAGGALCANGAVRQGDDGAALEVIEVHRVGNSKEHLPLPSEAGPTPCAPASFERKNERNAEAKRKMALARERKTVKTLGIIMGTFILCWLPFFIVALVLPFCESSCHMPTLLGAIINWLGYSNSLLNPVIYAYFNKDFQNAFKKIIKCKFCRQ

Compound	inhibition
CP(=S)(Nn1cnnc1)Oc1ccccc1 (configuration not stated)	inactive: 3%
CP(=O)(NC(=O)Nc1ccccc1)Oc1ccccc1 (configuration not stated)	inactive: 5.4%
CCOP(C)(=S)SCC(=O)NC(C)C(=O)O (configuration not stated)	inactive: 10.3%
Cc1ccc(NP(C)(=O)Oc2ccccc2)c(C)c1 (configuration not stated)	inactive: 4.1%
COc1ccccc1OP(C)(=O)Nc1ccc(C)cc1 (configuration not stated)	inactive: 5.1%
Cc1ccc(C)c(NP(C)(=O)Oc2ccccc2)c1 (configuration not stated)	inactive: -1.8%
Cc1nc2ccc3ccccc3c2s1.O=[N+]([O-])c1cc([N+](=O)[O-])c(O)c([N+](=O)[O-])c1	inactive: -10%
CN(C)CCOC(=O)C(O)(c1ccccc1)C1CCCCC1 (configuration not stated)	inactive: 9.3%
CCOP(C)(=S)SCC(=O)NC(C)(CC)C(=O)O (configuration not stated)	inactive: 4.1%
Cc1ccccc1NP(C)(=O)Nc1ccccc1C	inactive: 2.7%
CP(=O)(Nc1ccc2c(c1)OCCO2)Oc1ccccc1 (configuration not stated)	inactive: 4.3%
CP(=O)(Nc1ccccc1F)Oc1ccccc1 (configuration not stated)	inactive: 0.9%
COc1ccccc1OP(C)(=O)Nc1ccc(C)c(C)c1 (configuration not stated)	inactive: -7.1%
Cc1nc2ccc3ccccc3c2o1.O=[N+]([O-])c1cc([N+](=O)[O-])c(O)c([N+](=O)[O-])c1	inactive: 10.1%
CP(=O)(Nc1ccccn1)Oc1ccccc1 (configuration not stated)	inactive: 6.1%
COc1ccccc1OP(C)(=O)Nc1c(C)n(C)n(-c2ccccc2)c1=O (configuration not stated)	inactive: -13.9%
CP(=O)(Oc1ccccc1)N1CCOC1=O (configuration not stated)	inactive: 7.1%

From PubChem BioAssay AID612 (The Scripps Research Institute Molecular Screening Center, 2007)
